Assays:
[1] = rat, in vivo, 1 mg/kg
[2] = test system: plasma PTH (parathyroid hormone) levels; conditions: rat, in vivo

## Four-arm-PEG20k-L-leucine-acyloxymethyl-carbamate-cinacalcet [Compound (21)]
[1]
  cinacalcet release after intravenous administration (in words): relatively significant amounts of cinacalcet release
  time for which release of cinacalcet continues following intravenous administration: 8 to 12 h
[1]; iv
  T1/2: 4.67 h
  t1/2 compared to Compound (20): 2 fold

## Four-arm-PEG20k-glycine-amide-cinacalcet [Compound (16)]
[2]
  release of cinacalcet (stable linker, in words): diminished or no release of cinacalcet
[1]
  cinacalcet release after intravenous administration (in words): substantially no release of cinacalcet

## mPEG10k-L-leucine-acyloxymethyl-carbamate-cinacalcet [Compound (20)]
[1]
  cinacalcet release after intravenous administration (in words): relatively significant amounts of cinacalcet release
  time for which release of cinacalcet continues following intravenous administration: 8 to 12 h
[1]; iv
  T1/2: 2.32 h

## mPEG10k-glycine-amide-cinacalcet [Compound (15)]
[1]
  cinacalcet release after intravenous administration (in words): substantially no release of cinacalcet
